How the values were obtained:
[1] = test system: Nc1ncnc2c1ncn2[C@@H]1O[C@H](COP(=O)(O)OS(=O)(=O)O)[C@@H](O)[C@H]1O; experiment: purified protein; conditions: pH 10.6
A. thaliana Fhit = A. thaliana Fhit (Arabidopsis thaliana, UniProt F4KEV7)

By UniProt entry, the sequences of proteins in these tests, tags left out. Where a name states a change or a piece, a line headed by the entry shows the natural chain unless it says otherwise.
UniProt F4KEV7: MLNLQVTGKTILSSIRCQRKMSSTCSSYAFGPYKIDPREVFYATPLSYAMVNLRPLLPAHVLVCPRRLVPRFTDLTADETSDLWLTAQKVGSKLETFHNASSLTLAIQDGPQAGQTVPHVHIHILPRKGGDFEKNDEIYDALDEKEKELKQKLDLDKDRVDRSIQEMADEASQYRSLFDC

Molecule | Km [1] [µM] | ammonolysis assay (A. thaliana Fhit)
human Fhit (Homo sapiens) | 2400 ± 300 | 
Nc1ncnc2c1ncn2[C@@H]1O[C@H](COP(=O)(O)OS(=O)(=O)O)[C@@H](O)[C@H]1O [SO4-pA] |  | A. thaliana Fhits and T. brucei HIT-45 protein do catalyse ammonolysis of SO4-pA
